Assay: Toxicity (hazard class) of possible ingredients
Details: hazard symbol or 'none'

CN1CCN(C)C1=O [1,3-dimethyl-2-imidazolidinone]
Toxicity: none

Source: patent publication US20100273696A1, “Composition and method for the prevention and removal of unwanted paint on a surface” (priority 2009, published 2010)
